Measured values published in the NIST ThermoML archive (doi:10.1016/j.jct.2017.11.017).

Experiment: activity coefficient (dimensionless); of the first substance listed, at infinite dilution; xn = mol fraction of the nth substance listed
Details: 101.33 kPa, Liquid, Chromatography, x1 = 0

Row | Structure (SMILES) | activity coefficient (318.15 K) | activity coefficient (328.15 K) | activity coefficient (338.15 K) | activity coefficient (348.15 K) | activity coefficient (358.15 K) | activity coefficient (368.15 K) | activity coefficient (308.15 K)
1 | CCCCOCCCC [dibutyl ether] + C[n+]1ccn(CCCO)c1.N#CN=C=[N-] | 228 ± 16 | 218 ± 15 | 208 ± 14 | 200 ± 14 | 193 ± 13 | 185 ± 13 | –
2 | CCCCOCCCC [dibutyl ether] + C[N+]1(CCCO)CCOCC1.N#C[N-]C#N | 574 ± 40 | 514 ± 35 | 465 ± 32 | 426 ± 29 | 389 ± 27 | 359 ± 25 | 637 ± 44

Numbers after ± are expanded uncertainties.
